## Yeast mating assay 2: variants of the scFv Ab-95

Binding partner: SARS-CoV-2 spike HR2 peptide, sequence PDVDLGDISGINAS.

Parent scFv Ab-95: VH joined to VL by a (GGGGS)3 linker. Changes lie in the light chain CDRs alone.
VH: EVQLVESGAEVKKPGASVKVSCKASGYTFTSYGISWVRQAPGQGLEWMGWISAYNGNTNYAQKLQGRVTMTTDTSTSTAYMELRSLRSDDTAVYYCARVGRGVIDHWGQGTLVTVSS
VL: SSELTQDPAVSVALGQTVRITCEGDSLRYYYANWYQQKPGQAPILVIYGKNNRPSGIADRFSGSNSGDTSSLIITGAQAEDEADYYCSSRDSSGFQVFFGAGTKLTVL

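Phage display of a naive human antibody library on the peptide gave the parent. Variants in AAYL52 differ from the parent at up to three CDR positions; double and triple changes were sampled at random. The scFvs were displayed on barcoded MATa yeast, the peptide on MATalpha yeast. Binding brings cells together so that they mate, and sequencing counts the barcode pairs among the diploids. Scores were corrected for input abundance and mapped to Kd with protein pairs of known affinity run in the same pool. The assay was run in three technical replicates.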

Positions count from residue 1 of the parent VL; N33K puts K in place of N.
Scale: log10 of Kd in nM, estimated from mating counts; low values are strong binders.
A pair that was not seen in that replicate is written "nd"; this usually means weak binding, but a binder can also be missed.

changes,"log10 Kd, replicates",control signals
N33K+R90M+F95M,nd / nd / nd,1/9 (4.00)
N33L+S88G+D91S,2.85 / 2.65 / 2.42,3/9 (4.59)
L27M+N51F+N52Q,nd / 4.51 / nd,3/9 (3.19)
N51L+S92T,nd / nd / nd,1/9 (5.29)
G24R+D25P+G94M,3.98 / nd / nd,1/9 (3.72)
E23T+D25T+K50T,3.03 / 2.47 / 1.91,1/9 (3.21)
K50P+N51K+S92W,nd / nd / nd,2/9 (4.55)
E23I+N51W+N52V,nd / 3.43 / 4.06,6/9 (3.94)
Y30E+N52I,1.30 / 1.05 / 0.59,1/9 (3.90)
Y31H+N33A+S92R,3.83 / 3.34 / nd,3/9 (4.49)
Y30S+A32H+F98V,2.92 / 3.45 / 2.86,3/9 (4.07)
A32G+S89H,3.36 / 4.03 / nd,0/9
R28Y+S89F+S92R,4.14 / 3.65 / 2.29,3/9 (4.18)
G24D+R28G+S88G,4.30 / nd / 4.59,1/9 (3.80)
N33S+N52K+S93N,nd / nd / nd,0/9
N33I+S55H+S92K,nd / nd / 2.78,3/9 (4.69)
D25Q+N51Y+F98C,3.04 / 3.96 / nd,1/9 (4.61)
G49E+S89D+S93F,3.91 / 2.91 / nd,1/9 (4.26)
A32N+G49Y+V97R,5.45 / 3.89 / nd,6/9 (4.13)
D25I+R28I+S93C,nd / nd / nd,1/9 (5.20)
S26L+N51G+Q96T,nd / nd / nd,2/9 (3.56)
N52I+P54K+S88N,3.98 / 3.70 / 3.02,2/9 (4.34)
S26I+Y30N+G94N,1.97 / 1.82 / 1.62,2/9 (3.58)
K50A+R90Y+F98A,3.13 / 2.54 / 3.21,3/9 (3.26)
Y31W+G49M+S89A,3.34 / 3.47 / nd,1/9 (3.90)
S55T+S93F+G94M,5.50 / 4.58 / 3.06,5/9 (3.98)
N33P+K50W+P54S,5.23 / nd / nd,5/9 (3.73)
G49Y+D91G+S93G,nd / 3.71 / nd,2/9 (4.07)
A32T+G49N+K50T,4.44 / 4.87 / nd,3/9 (3.71)
G24N+G49W+S92V,4.04 / 3.24 / 3.49,3/9 (3.42)
E23D+L27M,1.68 / 1.71 / 1.23,3/9 (3.32)
K50M+S93C+V97L,2.39 / 2.61 / 2.05,3/9 (2.90)
S26C+S88T+F95E,nd / nd / nd,1/9 (3.70)
A32P+F95L+V97D,nd / 3.36 / 3.76,4/9 (3.80)
S26G+A32Y+R90Y,nd / 3.80 / 3.51,2/9 (3.95)
S26F+Y29K+N33W,nd / nd / 3.91,3/9 (4.14)
G24N+Q96T+V97R,4.14 / nd / nd,1/9 (3.67)
N51H+N52K+Q96S,5.02 / nd / 3.79,3/9 (3.63)
Y30E+A32N+S93R,3.31 / 3.74 / 3.46,3/9 (4.60)
G24E+D25Y+R28A,nd / 4.00 / nd,2/9 (4.19)
L27V+N33Y+S55K,1.76 / 1.90 / 3.00,4/9 (4.23)
R28D+N51A+S55N,3.48 / 2.90 / 3.02,2/9 (3.49)
E23A+N33S+F98S,3.12 / 3.28 / 2.83,2/9 (4.00)
R28Y+R53A+S55G,3.98 / 4.85 / nd,5/9 (3.72)
E23V+D91S+V97H,nd / 3.79 / nd,3/9 (3.71)
L27H+P54S+F95A,nd / 4.28 / 4.10,0/9
A32R+N52E+Q96P,3.15 / 3.71 / 4.08,4/9 (3.87)
Y30T+K50W+R90D,2.95 / 2.79 / 3.69,3/9 (4.58)

Parent in this assay: reference entry 2.31, copy in this library 2.25.
As a blank, each scFv also met three strains without target: over library AAYL52, 28% of these pairings were detected, typically at 3.91 and seldom below 2.90. Also given: how often the same scFv was detected with the empty control strains, with their mean in brackets.

Data: MIT Lincoln Laboratory AlphaSeq set, Engelhart et al. 2022, doi:10.1038/s41597-022-01779-4, as distributed in FLAb.